## scFv variants of Ab-14 (heavy chain) against a SARS-CoV-2 spike peptide

The measurements come from Li et al. 2023 (doi:10.1038/s41467-023-39022-2) through the FLAb antibody collection.

Target peptide (SARS-CoV-2 spike, HR2 region): PDVDLGDISGINAS

Ab-14 is the parent antibody, in scFv form: VH, then three GGGGS repeats, then VL. The light chain is unchanged in all variants.
VH: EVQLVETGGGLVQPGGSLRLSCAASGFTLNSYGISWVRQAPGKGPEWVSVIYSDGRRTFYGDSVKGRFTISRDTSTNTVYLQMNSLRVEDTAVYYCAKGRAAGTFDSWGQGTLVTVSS
VL: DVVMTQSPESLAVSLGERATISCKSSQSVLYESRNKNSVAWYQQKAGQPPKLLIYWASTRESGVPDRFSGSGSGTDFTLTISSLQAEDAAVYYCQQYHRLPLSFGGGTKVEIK

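The parent was found by panning a naive human phage display library on the peptide. Designed CDR sequences, proposed from the first random library and measured here. Their group label is 14H_Rand (Rand: our label for a block that the file lists under HC and that is probably the random mutants of the ten best first-round binders). AlphaSeq pools MATa yeast showing the antibodies with MATalpha yeast showing the peptide. Binding brings cells together so that they mate, and sequencing counts the barcode pairs among the diploids. The ratio of observed to expected reads was calibrated, replicate by replicate, on BCL2-family standards whose Kd was known from biolayer interferometry. There are six technical replicates.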

Variants are written as CDR1, CDR2 and CDR3 of the heavy chain (limits as in the source). Parent: GFTLNSYGIS, VIYSDGRRTFYGDSVK, GRAAGTFDS.
Affinities are written as log10 Kd with Kd in nM; a lower number is a better binder.
"ND" means that the variant was in the library but no mating with the target was seen in that replicate; the authors take this as a sign of poor binding, and no number exists.
Of ten entries with the parent sequence, four were seen in most replicates (averages 0.34 to 2.37), three in one and three in none, so single entries are noisy.
A sequence measured in both rounds can read differently, since the two assays cover different ranges.
As a blank, each scFv also met three strains without target: over all heavy chain designs, 1% of these pairings were detected, typically at 2.08 and seldom below 0.84. The control count says in how many pairings with the empty strains this scFv gave a signal, with their mean in brackets.
The authors' rule: three or more of the six replicates give a measured affinity, fewer mean a poor binder.

CDR-H1	CDR-H2	CDR-H3	log10 Kd, replicates	empty controls
GDDLNSYGIS	VIYSDGRRTFYGDSVK	GRAAGWFNS	ND / ND / ND / ND / ND / ND	0/18
GFTLNDYGIS	VIYSDGIRTFYGDSVK	GRAALTFIS	ND / ND / ND / ND / ND / ND	0/18
GFTLNEYGIS	VIYSDGRPTFYTDSVK	GRIAGTFDG	ND / 2.34 / ND / ND / ND / ND	0/18
GFTLNQYGIS	VIYSDGRRTFRSDSVK	GRAAGFFDS	ND / ND / ND / ND / ND / ND	0/18
GFTLNQYGIS	VLYSDGRRTFYSDSLK	GRAAGFFDS	ND / ND / ND / ND / ND / ND	0/18
GFTSNSYGIS	VIYADGARTFYGDSVK	GRAAGTNKS	2.24 / 2.96 / 2.94 / 2.83 / 2.93 / ND	0/18
RFTLNDYGIS	VIYSDGRRTQYIDSVK	GRAAGTFDS	ND / ND / ND / ND / ND / ND	0/18
GFTLNDYGIS	VIYSDGRVTFYGDSVK	GLAALCFIS	ND / ND / ND / ND / ND / ND	0/18
GFTLNEYGIS	VIYSDLRRTVYTDSVK	GRFAGTFDS	ND / ND / ND / ND / ND / ND	0/18
GFTLNEYGIS	VIYSDGRRTFYTDSGK	GRFAGTFDS	2.22 / ND / ND / ND / 3.10 / ND	0/18
GFTLDQYRIS	VIYSDGRRTFYSDSVK	GRAAGDFDS	ND / ND / ND / ND / ND / ND	0/18
GFTLDSYGIS	VDYSDGRRTFYGDSVK	GRAAGTALS	ND / ND / ND / ND / ND / ND	0/18
GFTLDSYGIS	VIYSDGRRTFYGDSVK	GRADGTALS	ND / ND / ND / ND / ND / ND	0/18
QFTLNSYGIS	VIHADGRRTFYGDSVK	GRAAGTNKS	ND / ND / ND / ND / ND / ND	0/18
GRTLNSYGIS	VIYSDGRRTFYDDSVK	GQLAGTFDQ	1.12 / 0.78 / 0.60 / 0.80 / 0.27 / 1.46	0/18
GTTLNSYFIS	VIYSDGRRTFHDDSVK	GQLAGDFDS	ND / ND / ND / ND / ND / ND	0/18
GFTNFDYGIS	VYYSDGRRTQYIDSVK	GNAAGTFDS	ND / ND / ND / ND / ND / ND	0/18
GFTLNQRGIS	VIYSDGRRTFYSDSVK	PCAAGFFDS	ND / ND / 0.47 / ND / ND / ND	0/18
YFTLNEYGNS	VIYSDGRRTFYDDHVK	GRAQVTFDQ	ND / ND / ND / ND / ND / ND	0/18
GFTLDSYGIS	VLYSDGRRTFYGDSVK	GGAAGTALS	ND / ND / ND / ND / ND / ND	0/18
GFTLNGYGIS	VIYSDGRRTQYIDSVK	GRAAGTFDS	2.61 / 1.58 / 1.51 / 1.37 / 1.52 / 2.31	0/18
GFTGNSYGIS	VIYSDGRRTFYDDSVK	GQLAGTFDS	ND / ND / ND / ND / ND / ND	0/18
GFTLNFYGIS	VIYSDGRRTFYDDSVK	GQLAGTFDS	ND / ND / 0.20 / ND / ND / ND	0/18
GFTLNQYGIS	VIYSDGRLTFYSDSVK	GRAAGFFDS	ND / ND / ND / ND / ND / ND	0/18
GFMLYSYGIS	VIYADGRRPFYLDSCK	GRAAGTNKS	ND / ND / ND / ND / ND / ND	0/18
GFDLNSYGIS	VIYMDGRRTFYGDSVK	GRAAGWLNS	ND / ND / ND / ND / ND / ND	0/18
GFTLNDYGIS	VIYSDGRRQQYIDSVK	GRAAGTFDS	1.61 / 2.93 / 2.35 / 1.57 / 1.62 / 1.44	0/18
GFTLNEYGIS	VIYSDGRWTFYTDSVK	GRFAGTFDS	ND / ND / ND / ND / ND / ND	0/18
GFHLNQYGWS	VIYSDGRDTFYSDSVK	GRAAGFFDS	ND / ND / ND / ND / ND / ND	1/18 (1.27)
GFTLNSYGIS	VIYSDGRSTFYSDSVK	GRAIGTFDS	ND / ND / ND / ND / ND / ND	0/18
GFTLNEYGIS	VMYKHGRRTFYTDSVK	GRFAGTFDS	ND / ND / ND / ND / ND / ND	1/18 (-0.16)
GFDLNSYIIS	VIYSDGRRTFWGDSVK	GRCARWFNS	ND / ND / ND / ND / ND / ND	0/18
GFTLNQYGIS	VIYADGRRTFYFDSVK	GRAAGFFDS	ND / 3.43 / ND / ND / ND / ND	0/18
GFTLDSYGRS	VIDSDGRRTFYGDSVK	GRAAGTALS	ND / ND / ND / ND / ND / ND	0/18
GFDLNSYCIS	VIYSDGRRTFYGDSVK	VRRAGWFNS	ND / ND / ND / ND / ND / ND	0/18
GFTLNEYGIS	VIYSDGRRTMYTQSVK	GRFAGTFDS	0.62 / 0.65 / 1.05 / 0.69 / 0.72 / 2.63	0/18

Repeated from above, the 3 best binders with a signal in all replicates:

CDR-H1	CDR-H2	CDR-H3	log10 Kd, replicates	empty controls
GRTLNSYGIS	VIYSDGRRTFYDDSVK	GQLAGTFDQ	1.12 / 0.78 / 0.60 / 0.80 / 0.27 / 1.46	0/18
GFTLNEYGIS	VIYSDGRRTMYTQSVK	GRFAGTFDS	0.62 / 0.65 / 1.05 / 0.69 / 0.72 / 2.63	0/18
GFTLNGYGIS	VIYSDGRRTQYIDSVK	GRAAGTFDS	2.61 / 1.58 / 1.51 / 1.37 / 1.52 / 2.31	0/18